Only some compounds are listed: those with a hit (about 0.94% of all), similar ones and a draw of the others.
Exocytosis inh – lytic granule exocytosis inhibition; TALL-104 LAMP-1 surface exposure, flow cytometry; cells stimulated with thapsigargin and PMA; inhibition, % at 10 µM; 360,000 tested, 0.66% active; AID 651702;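 active means inhibition above about 55%, limit read from the data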
pCIP destab – compounds decreasing mouse p/CIP protein stability | Q05BA5 | decrease of EGFP signal, % at 10 µM | 290,000 tested, 0.01% active | AID 1984 | F442A p/CIP-EGFP cells, EGFP fluorescence, 16 h;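 active means EGFP signal decrease of at least 30% at 10 µM or well 3 SD below plate mean, unless failing retest; inactive means the rest, including hits failing retest or dose response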
UUG fidelity – modulators of yeast start codon fidelity, primary screen, whole organism, S. cerevisiae, single point, plate reader; S. cerevisiae UUG-firefly luciferase reporter, luminescence/redox ratio; activity score, % at 18.7 µM; actives 0.13% (n = 350,000);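 active means replicate mean at a twofold rise or more, about +100% in these data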;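 further: firefly luciferase made from a UUG start codon reports start codon fidelity; reporter light over untreated wells divided by growth signal over untreated wells; some hits fall short of that in this replicate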
ABCB6 inh 2 – inhibitors of human ABC transporter ABCB6; fluorescence ratio to DMSO, % at 10 µM; 360,000 tested, 0.19% active; AID 602162; K562-ABCB6 porphyrin accumulation, flow cytometry, 1 h; stronger effect = lower value;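 active means fluorescence ratio to DMSO below 75%, the collection mean minus 3 SD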;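 further: signal is porphyrin accumulated inside mitochondria; lower ratio means ABCB6 inhibition with less porphyrin fluorescence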
PKA-R1A act – activates the PKA-R1A holoenzyme complex; P00514+P68181; PKA-R1A dissociation, Cy5-IP20 fluorescence polarization; scaled: DMSO 0%, 113 µM cGMP 100%; activation, % at 11.4 µM; 340,000 tested, 0.083% active; AID 504707;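 active means percent activation above the mean of all tested compounds plus 3 SD, cut at about 19% in these data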;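 further: higher means more PKAc released from R1A so a rise in polarization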
PKA-R2B activ – activates the human PKA-R2B holoenzyme complex; AID 504700; 340,000 tested, 0.079% active; PKA-R2B holoenzyme dissociation, Cy5-IP20 fluorescence polarization; R2B truncated from residue 108, S112A mutant; 0% DMSO only, 100% 113 µM cGMP; activation, % at 11.4 µM;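 active means activation above a cutoff set at the mean over all compounds plus 3 SD, cut at about 18% in these data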;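 further: higher means more holoenzyme dissociation and a rise in polarization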
Exocytosis CP01 – lytic granule exocytosis inhibition; inhibition, % at 10 µM; shares compounds with Exocytosis inh; AID 651954; TALL-104 cells, LAMP-1 externalization, flow cytometry; stimulated with PMA plus thapsigargin; 1,500 tested, 11% active; in the data active means inhibition above about 60%
Of the large screens only hits and unclear results are named; the others gave an inactive call (follow-up assays come after a bar, where they were run).

CCOc1ccc(N(CC(=O)Nc2ccccc2OC)S(=O)(=O)c2ccccc2)cc1	Exocytosis inh 65 | Exocytosis CP01 inactive
COc1ccc(N(CC(=O)Nc2cc(C)on2)S(=O)(=O)c2cc(C)ccc2C)cc1	Exocytosis inh 57 | Exocytosis CP01 inactive
Cc1ccc(CNC(=O)c2ccc(N(C)S(=O)(=O)c3ccccc3)cc2)cc1	Exocytosis inh 67 | Exocytosis CP01 inactive
CN(c1ccccc1)S(=O)(=O)c1ccc(C(=O)NCc2ccc(F)cc2)cc1	none (no result: pCIP destab)
CCCN(CCC)S(=O)(=O)c1cccc(-c2csc(C)n2)c1	Exocytosis inh 59 | Exocytosis CP01 inactive
C[C@H](CO)N1C[C@H](C)[C@@H](CN(C)Cc2ccc(Cl)c(Cl)c2)Oc2ccc(NC(=O)Nc3ccc4c(c3)OCO4)cc2C1=O	none (no result: Exocytosis inh, pCIP destab, ABCB6 inh 2, PKA-R1A act, PKA-R2B activ)
FC(F)(F)c1cccc(-c2cncc(N3CCN(CCN4CCCC4)CC3)n2)c1	none (no result: pCIP destab, PKA-R1A act, PKA-R2B activ)
Fc1cccc(-c2cncc(N3CCN(CCN4CCCC4)CC3)n2)c1	Exocytosis inh 59 (no result: pCIP destab, PKA-R1A act, PKA-R2B activ) | Exocytosis CP01 inactive
COc1ccc(C(=O)N(CCc2ccccc2)Cc2cccs2)c(OC)c1	Exocytosis inh 64 (no result: UUG fidelity) | Exocytosis CP01 inactive
C[C@@H]1CN([C@@H](C)CO)C(=O)c2cccc(NC(=O)Nc3ccc(F)cc3)c2O[C@H]1CN(C)S(=O)(=O)c1cccs1	none (no result: Exocytosis inh, pCIP destab, ABCB6 inh 2, PKA-R1A act, PKA-R2B activ)
CCOC(=O)c1ccc(NC(=O)c2sc3nc(N4CCOCC4)c4c(c3c2N)CCCC4)cc1	Exocytosis inh 93 | Exocytosis CP01 inactive
CCOC(=O)c1ccc(NC(=O)c2ccc(C)c(S(=O)(=O)N3CCOCC3)c2)cc1	Exocytosis inh 76 (no result: UUG fidelity) | Exocytosis CP01 74
COc1ccc(NC(=O)c2sc3nc(N4CCOCC4)c4c(c3c2N)CCCC4)cc1	none (no result: pCIP destab)
O=C(C[C@@H]1C[C@@H]2c3cc(NC(=O)Nc4ccc(C(F)(F)F)cc4)ccc3O[C@@H]2[C@@H](CO)O1)NCC1CC1	none (no result: Exocytosis inh, pCIP destab, ABCB6 inh 2, PKA-R1A act, PKA-R2B activ)
COc1ccc(C(=O)CCN2CCN(c3ccc(OC)cc3)CC2)cc1	Exocytosis inh 101 | Exocytosis CP01 inactive
O=C(CCN1CCOCC1)c1ccc(Br)cc1	Exocytosis inh 96 | Exocytosis CP01 inactive
O=C(CCN1CCN(c2ccccc2)CC1)c1ccc(Br)cc1	Exocytosis inh 56 | Exocytosis CP01 inactive
COCC(=O)Nc1ccc2c(c1)[C@H]1C[C@@H](CC(=O)NCc3ccccc3OC)O[C@@H](CO)[C@H]1O2	none (no result: Exocytosis inh, pCIP destab, ABCB6 inh 2, PKA-R1A act, PKA-R2B activ)
c1ccc(CNCCC(Cc2ccccc2)c2ccco2)cc1 (stereo not drawn)	Exocytosis inh 72 | Exocytosis CP01 inactive
Clc1ccc(-c2c(C3=NCCCN3)nnn2-c2ccc(Cl)cc2)cc1	Exocytosis inh 56 | Exocytosis CP01 inactive
Cc1cccc(N2C(=O)CC(Sc3ccccc3C(=O)O)C2=O)c1 (stereo not drawn)	none
Cc1cc(C)cc(N2C(=O)CC(Sc3ccccc3C(=O)O)C2=O)c1 (stereo not drawn)	Exocytosis inh 84 (no result: UUG fidelity) | Exocytosis CP01 inactive
COC(=O)CNC(c1ccccc1)c1cc(Br)ccc1NC(=O)CCN1CCOCC1 (stereo not drawn)	Exocytosis inh 78 (no result: UUG fidelity) | Exocytosis CP01 inactive
CCOC(=O)CNC(c1ccccc1)c1cc(Br)ccc1NC(=O)CCN1CCOCC1 (stereo not drawn)	none (no result: UUG fidelity)
C/C=C/c1ccc2c(c1)O[C@H](CN(C)C)[C@@H](C)CN([C@@H](C)CO)S2(=O)=O	none (no result: Exocytosis inh, pCIP destab, ABCB6 inh 2, PKA-R1A act, PKA-R2B activ)
C[C@@H]1CN([C@H](C)CO)C(=O)c2cc(NC(=O)Nc3ccc4c(c3)OCO4)ccc2O[C@H]1CN(C)S(=O)(=O)c1cn(C)cn1	none (no result: Exocytosis inh, pCIP destab, ABCB6 inh 2, PKA-R1A act, PKA-R2B activ)
Cc1noc(C)c1S(=O)(=O)N(C)C[C@H]1Oc2c(NC(=O)Nc3ccc(C(F)(F)F)cc3)cccc2C(=O)N([C@H](C)CO)C[C@@H]1C	none (no result: pCIP destab)
CC(C)NC(=O)N(C)C[C@H]1Oc2ccc(NC(=O)C3CC3)cc2C(=O)N([C@H](C)CO)C[C@@H]1C	Exocytosis inh 79 (no result: pCIP destab) | Exocytosis CP01 inactive

From PubChem BioAssay
